{"sequences": {"note": "Protein sequences, listed by entry. Tags and fused reporters are not part of them.", "UniProt Q05941, whole entry": "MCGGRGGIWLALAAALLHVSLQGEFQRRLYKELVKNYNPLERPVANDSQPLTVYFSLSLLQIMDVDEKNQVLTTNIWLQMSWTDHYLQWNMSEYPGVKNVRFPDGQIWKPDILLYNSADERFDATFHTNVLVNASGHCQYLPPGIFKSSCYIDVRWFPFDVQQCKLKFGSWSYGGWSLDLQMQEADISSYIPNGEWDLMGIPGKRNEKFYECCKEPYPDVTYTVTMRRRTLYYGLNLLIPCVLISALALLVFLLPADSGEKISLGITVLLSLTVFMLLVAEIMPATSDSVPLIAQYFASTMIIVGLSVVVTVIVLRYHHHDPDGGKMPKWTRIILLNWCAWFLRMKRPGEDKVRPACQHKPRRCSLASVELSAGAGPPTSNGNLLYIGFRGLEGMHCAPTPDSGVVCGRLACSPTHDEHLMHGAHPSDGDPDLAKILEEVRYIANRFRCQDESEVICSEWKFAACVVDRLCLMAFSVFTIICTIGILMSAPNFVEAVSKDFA"}, "source": "ChEMBL document CHEMBL4411326", "about": "(J Med Chem, 2019)", "biological_target": "Neuronal acetylcholine receptor subunit alpha-7 (Rattus norvegicus) (UniProt Q05941)", "assay": "Agonist activity at rat alpha7 nAChR expressed in Xenopus laevis oocytes assessed as increase in intracellular Ca2+ levels at 0.025 to 250 uM by calcium flux assay relative to ACh", "assay_type": "cell-based", "data": [{"smiles": "N[C@@H]1[C@@H]2CC[C@@H](C2)[C@H]1c1cccnc1", "values": [{"measurement": "fold change (FC)", "value": 3}]}, {"smiles": "N[C@@H]1[C@@H]2CC[C@@H](C2)[C@H]1c1ccc(Cl)nc1", "values": [{"measurement": "fold change (FC)", "value": 3}]}]}
